# The whole screen tested about 260,000 compounds, of which about 150 (0.058%) were called active. Listed are the inconclusive results; actives and inactives stand elsewhere. Calls come from the whole dose curve; as a rule, active = well fitted inhibition curve with a large enough effect; inconclusive = small, poorly fitted or top-dose-only effect; inactive = no such curve, though single readings can be large or run the other way.
# Protein sequences, listed by entry. Tags and fused reporters are not part of them.
# UniProt P14618, whole entry, looked up: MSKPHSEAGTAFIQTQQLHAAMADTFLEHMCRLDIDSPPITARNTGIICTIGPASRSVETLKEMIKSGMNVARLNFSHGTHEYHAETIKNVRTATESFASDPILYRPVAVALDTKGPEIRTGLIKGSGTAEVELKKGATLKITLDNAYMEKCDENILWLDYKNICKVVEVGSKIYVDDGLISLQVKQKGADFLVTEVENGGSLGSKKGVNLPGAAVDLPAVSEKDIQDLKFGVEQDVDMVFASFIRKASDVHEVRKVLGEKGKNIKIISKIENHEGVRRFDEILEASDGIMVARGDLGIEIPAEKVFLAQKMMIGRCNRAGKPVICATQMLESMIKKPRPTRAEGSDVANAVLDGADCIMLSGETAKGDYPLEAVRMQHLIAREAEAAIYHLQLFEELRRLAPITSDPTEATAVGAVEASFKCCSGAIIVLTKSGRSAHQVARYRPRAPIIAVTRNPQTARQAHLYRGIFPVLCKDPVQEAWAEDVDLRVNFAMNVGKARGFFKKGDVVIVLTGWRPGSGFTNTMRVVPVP
# Target: Pyruvate kinase PKM (Homo sapiens) (UniProt P14618)
# Assay: qHTS Assay for Inhibitors of Human Muscle isoform 2 Pyruvate Kinase; note: nearly all actives have a fitted effect of over 60% in size
# Settings: purified PKM2, ATP generation, Kinase-Glo luminescence
# Experimental: NIH Chemical Genomics Center [NCGC] Matthew G. Vander Heiden, M.D., Ph.D. [Harvard Medical School, 77 Avenue Louis Pasteur, Boston, MA 02115] […] ATP generation was detected in a coupled reaction by luciferase-mediated luminescence, an ATP-dependent process. […] The enzyme was assayed at an intermediate level of activity to screen for both inhibitors and activators.
# NCGC Assay Protocol Summary: Three uL of substrate mix (at r.t.) in assay buffer (50 mM Imidazole pH7.2, 50 mM KCl, 7 mM MgCl2, 0.01% Tween 20, 0.05% BSA) was dispensed into white solid bottom 1,536 well microtiter plates so that the final concentrations of substrates in the assay were 0.1 mM ADP and 0.5 mM PEP. 23 nL of compound were delivered by a pin tool and 1 uL of enzyme mix in assay buffer (4 degree Celsius) was added. Plates were incubated at room temperature for 1 hour. Two uL of detection mix (Kinase-Glo, Promega; at 4 degree Celsius protected from light) was added and luminescence read by a ViewLux (Perkin Elmer) at 5 second exposure/plate. Data were normalized to the uninhibited and AC100 inhibition (no enzyme). To monitor activation, the first column contained a titration of the activator, NCGC00031955-01 (16-point 1:2 dilutions in duplicate starting at 57 uM) and the first 16 rows of column 4 contained 57 uM of NCGC00031955-01.
# Potency is the fitted concentration of half-maximal effect.
row,Compound,Potency
1,CS(=O)(=O)c1cc([N+](=O)[O-])c2no[n+]([O-])c2c1,inconclusive: 35.5 µM
